Results from patent US8093275B2, “Oxazolone and pyrrolidinone-substituted pryidine amides as P2X3 and P2X2/3 antagonists” (Roche Palo Alto LLC, priority 2009, dated 2012).

Protein sequences, listed by entry. Tags and fused reporters are not part of them.
UniProt P49654, whole entry: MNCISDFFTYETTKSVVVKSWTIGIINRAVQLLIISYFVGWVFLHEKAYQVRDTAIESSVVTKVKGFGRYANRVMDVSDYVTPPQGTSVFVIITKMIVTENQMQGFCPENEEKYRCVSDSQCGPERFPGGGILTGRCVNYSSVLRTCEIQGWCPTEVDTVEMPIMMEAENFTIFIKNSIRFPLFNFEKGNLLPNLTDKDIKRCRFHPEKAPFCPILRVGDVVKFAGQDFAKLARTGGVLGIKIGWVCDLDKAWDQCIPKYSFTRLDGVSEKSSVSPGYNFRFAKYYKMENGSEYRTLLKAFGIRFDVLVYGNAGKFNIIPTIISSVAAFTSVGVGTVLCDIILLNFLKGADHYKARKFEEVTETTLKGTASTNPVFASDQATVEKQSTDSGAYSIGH

Target: rat P2X3 receptor (Rattus norvegicus, UniProt P49654)
Test: P2X3 FLIPR (Fluorometric Imaging Plate Reader) assay
Details: CHO-K1 cells transfected with rat P2X3; agonist α,β-meATP 1 μM; FLIPR calcium fluorescence
Method: CHO-K1 cells were transfected with cloned rat P2X3 or human P2X2/3 receptor subunits and passaged in flasks. 18-24 hours before the FLIPR experiment, cells were released from their flasks, centrifuged, and resuspended in nutrient medium at 2.5×10^5 cells/ml. The cells were aliquoted into black-walled 96-well plates at a density of 50,000 cells/well and incubated overnight in 5% CO2 at 37° C. On the day of the experiment, cells were washed in FLIPR buffer (calcium- and magnesium-free Hank's balanced salt solution, 10 mM HEPES, 2 mM CaCl2, 2.5 mM probenecid; FB). Each well received 100 μl FB and 100 μl of the fluorescent dye Fluo-3 AM [2 μM final conc.]. […]
Test compounds (dissolved in DMSO at 10 mM and serially diluted with FB) or vehicle were added to each well (25 μl of a 4× solution) and allowed to equilibrate for 20 minutes at room temperature. The plates were then placed in the FLIPR and a baseline fluorescence measurement (excitation at 488 nm and emission at 510-570 nm) was obtained for 10 seconds before a 100 μl/well agonist or vehicle addition. […] Fluorescence was measured for an additional 2 minutes at 1 second intervals after agonist addition. A final addition of ionomycin (5 μM, final concentration) was made to each well of the FLIPR test plate to establish cell viability and maximum fluorescence of dye-bound cytosolic calcium. […]

Cc1ccc(-c2cc(C(=O)NCc3cnc(C)cn3)cc(N3C(=O)OC[C@H]3C)c2)nc1
pKi P2X3: 5.82
